{
  "source": "patent US20220401391A1",
  "about": "“METHODS AND COMPOSITIONS FOR TREATING PAIN” (Apkarian Technologies LLC, priority 2019, published 2022)",
  "assay": "Adverse events and safety in the clinical trial",
  "key": {"[1]": {"details": "participants who received at least one dose"}},
  "data": [
    {"substance": "placebo+naproxen [PLC+NPX]", "values": [
      {"measurement": "Participants reporting clinical adverse events (number)", "setting": "[1]", "value": 17},
      {"measurement": "Participants reporting clinical adverse events (percent)", "setting": "[1]", "value": 56.7, "unit": "%"},
      {"measurement": "Safety / tolerability in words", "setting": "three months of treatment", "value": "unperturbed vital signs and acceptable adverse-event profiles"}
    ]}
  ]
}
